PubChem BioAssay AID925 (National Center for Advancing Translational Sciences (NCATS), 2007)
This is a selection; strong and weak results do not stand in their true shares. Calls of active or inactive are those of the source. Calls follow the shape of the dose curve; as a rule, active = well fitted activation curve with a large enough effect; inconclusive = small, poorly fitted or top-dose-only effect; inactive = flat fitted curve, though single readings scatter.

experiment: qHTS Assay for Modulators of Hemoglobin Beta Chain Splicing; conditions: HBB splicing reporter cell assay, EGFP reporter with mutant IVS2-654 intron, normalised to 500 nM splice-correcting PNA; at 46.1 µM unless noted; also: 0% is about no effect
From the text: NIH Chemical Genomics Center [NCGC]
NIH Molecular Libraries Screening Centers Network [MLSCN]
PI Name: Dr. Ryszard Kole
Modulation of Alternative Splicing as Therapy
Abnormal splicing is associated with a number of diseases, including cancer and genetic diseases such as cystic fibrosis, muscular dystrophy and beta-thalassemia. Alteration of disease associated splicing patterns provides a promising target for treatment. […] Mutations in the second intron of the beta-globin gene at positions are clinically relevant and cause mis-splicing which results in an out of frame gene product.
EGFP-654 and 705 HeLa Cells as screen system.
HeLa cell lines were stably transfected with a construct in which the EGFP (enhanced green fluorescent protein) cDNA was interrupted by the second intron of the beta-globin gene (IVS2-654). The ISV2 intron contains mutations which cause mis-splicing of EGFP and premature termination of EGFP which results in a nonfluorescent protein product. […] Expression of the transgene was driven by the CMV promoter. We concluded that a low molecular weight compound, which restored correct splicing of intron 2 would also generate functional EGFP protein, resulting in a fluorescent signal. Thus, the HeLa cells that express the EGFP-654 construct can be used for high throughput screening of a chemical library.
NCGC Assay Protocol Summary:
High Throughput Screening. Freshly thawed HeLa EGFP-654 cells were seeded in 5 ul of optimem media (Invitrogen) containing 2 % fetal calf serum (Hyclone) and 1x penicillin/streptomycin (Invitrogen) at a concentration of 500 cells per well in 1536-well plates. Cells were incubated overnight at 37C in 5% CO2. The next day, cells were treated with DMSO, 500 nM antisense ISV2 654 PNA control oligo, or library compound and allowed to grow at 37C in 5% CO2 for 2 days. The PNA oligo blocked the mutation site in the intron and allowed proper (wild type) splicing to occur, resulting in full length EGFP expression and also allowed for optimization of the assay parameters. Plates were read in the Acumen Explorer (TTP Labtech) using 488 nm laser excitation and 500-520 nm emission PMT filter in a 1 x […] capture mode. Fluorescnet Fluorescent objects ranging in size from […] were measured and the total peak GFP intensity for each well was used for data analysis.
Keywords: Thalassemia, beta-thalassemia, beta-globin, EGFP, ISV2 654, ISV2 705, SSO, PNA, antisense, splicing, MLSMR, MLSCN, NIH Roadmap, qHTS, NCGC

Compound	activation
O=C(OC1CN2CCC1CC2)C1c2ccccc2Oc2ccccc21 (stereo not given)	inactive: 3.61% [at 1.84 µM]
N#CC1(Nc2ccccc2)CCN(CCc2ccccc2)CC1	inactive: -2.25%
NC1CCCCC1.NP(=O)(O)N(CCCl)CCCl	inactive: 2.37% [at 9.22 µM]
CCOP(=O)(Cl)Cl	inactive: 1.15%
N/C(=N\O)c1c(N)no[n+]1[O-]	inactive: -4.43% [at 57.5 µM]
ClCCOP(OCCCl)OCCCl	inactive: 0.517%
Fc1ccccc1NC1CCN(Cc2ccccc2)CC1	inactive: 0.291% [at 9.22 µM]
CCC(CO)(C(=O)OC1CN2CCC1CC2)c1ccccc1 (stereo not given)	inactive: -0.553%
O=C(O)C1(Nc2ccccc2)CCN(Cc2ccccc2)CC1	inactive: 1.98% [at 9.22 µM]
CCOc1ncccc1C(=O)NCC1(N2CCOCC2)CCCCC1	inactive: 1.15%
